Reported melting point values for industrial, environmental and drug-like chemicals

Values as listed in the OPERA 2.9 repository of K. Mansouri.

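The numbers are reported measurements, compiled and curated for the OPERA QSAR suite. A listed value is a point estimate from one report or more. Method, purity and exact conditions of the single measurements are not given. The measured form (salt, isomer or mixture) is not always the one drawn. Some upstream entries may be estimates or bounds without being marked so.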

The melting point is given in degrees Celsius. Cells with "n/a" have no entry in this list. "via" names the databases from which the curators took the value.

compound,name,MP (°C),via
C#C[C@]1(OC(C)=O)CC[C@H]2[C@@H]3CCC4=CC(=O)CC[C@@H]4[C@H]3CC[C@@]21CC,Levonorgestrel acetate,204,eChemPortal
O=C(CCl)c1ccc(F)c(F)c1,"2-Chloro-1-(3,4-difluoro-phenyl)-ethanone",38,OCHEM
COc1ccc(F)cc1CCl,2-(chloromethyl)-4-fluoro-1-methoxybenzene,52.5,OCHEM
O=C(NCCc1ncc(C(F)(F)F)cc1Cl)c1ccccc1C(F)(F)F,Fluopyram,118,OCHEM
O=C(NC(=O)c1c(F)cccc1F)Nc1ccc(Oc2ccc(C(F)(F)F)cc2Cl)cc1F,Flufenoxuron,168.8,"OCHEM, PubChem"
COc1cc(OC)nc(Oc2cccc(Oc3nc(OC)cc(OC)n3)c2C(=O)O)n1,Bispyribac,149,PubChem
CCCn1c(C)c(C(=O)O)c2cc(OC)ccc21,5-Methoxy-2-methyl-1-propyl-1H-indole-3-carboxylic acid,172,OCHEM
Clc1cc(Cl)cc(-c2cc(Cl)cc(Cl)c2)c1,n/a,164,QSARDB
C[C@]12CCC3=C4CCC(=O)C=C4CC[C@H]3[C@@H]1CC[C@@H]2O,"9,10-Dehydro-19-nortestosterone",179.8,eChemPortal
CC(Cl)C(=O)c1ccc(Cl)cc1 (stereo unspecified),2-chloro-1-(4-chlorophenyl)propan-1-one,56.92,"OCHEM, eChemPortal"
C#C[C@]1(O)CC[C@H]2[C@@H]3C=CC4=CC(=O)CC[C@@H]4[C@H]3CC[C@@]21C,"(17alpha)-17-Hydroxy-19-norpregna-4,6-dien-20-yn-3-one",242.9,eChemPortal
CCCCC(CC)COC(=O)c1ccc(C(=O)OCC(CC)CCCC)c(C(=O)OCC(CC)CCCC)c1 (stereo unspecified),Tris(2-ethylhexyl) trimellitate,-46,"OFMPub, eChemPortal"
C1CCC2NCCC2C1 (stereo unspecified),Octahydro-1H-indole,143,OCHEM
NCC(O)c1ccc(F)c(F)c1 (stereo unspecified),"2-Amino-1-(3,4-difluorophenyl)ethan-1-ol",54,OCHEM
CCCCCCOC(N)=O,"Carbamic acid, hexyl ester",62,QSARDB
N#CCCNC(=O)CCl,"Acetamide, 2-chloro-N-(2-cyanoethyl)-",97,OCHEM
CN(C)[P+](Cc1ccccc1)(N(C)C)N(C)C.[Cl-],Benzyltris(dimethylaminato)phosphorus(1+) chloride,172.5,eChemPortal
C[C@@H]1C[C@@]2(O[C@H]2C)C(=O)O[C@@H]2CCN3CC=C(COC(=O)[C@]1(C)O)[C@H]23,Jacobine,228,PubChem
CCCCCOC(N)=O,"Carbamic acid, pentyl ester (8CI)(9CI)",94,QSARDB
O=C([O-])CP(=O)([O-])O[O-].[Na+].[Na+].[Na+],"Acetic acid, 2-hydroxy-2-phosphono-, sodium salt (1:3)",359.9,eChemPortal
O=[N+]([O-])C=Cc1c(Cl)cccc1Cl,"1,3-Dichloro-2-(2-nitroethenyl)benzene",64.5,OCHEM
N#Cc1nn(-c2c(Cl)cc(C(F)(F)F)cc2Cl)c(N)c1SSc1c(C#N)nn(-c2c(Cl)cc(C(F)(F)F)cc2Cl)c1N,n/a,297.6,eChemPortal
NCCc1nc2ccccc2[nH]1,2-(1H-Benzimidazol-2-yl)ethan-1-amine,222,OCHEM
CN1C(=O)CC(=O)N(c2ccccc2)c2cc(Cl)ccc21,Clobazam,167,PubChem
CC(=O)C(C#N)c1ccc(Cl)cc1 (stereo unspecified),"Benzeneacetonitrile, .alpha.-acetyl-4-chloro-",130,OCHEM
C[N+](C)(C)C.[OH-],Tetramethylammonium hydroxide,63,PubChem
CCCCCCCCOC(N)=O,"Carbamic acid, octyl ester",67,QSARDB
O=c1c2ccccc2nc(Cl)n1-c1ccccc1,2-chloro-3-phenylquinazolin-4(3H)-one,128,OCHEM
O=C(CCl)N1CCCCCCC1,1-(Azocan-1-yl)-2-chloroethan-1-one,67,OCHEM
Clc1ccc(Cl)c(-c2cccc(Cl)c2Cl)c1,n/a,47,QSARDB
Cc1cc(C=O)c(C)n1C1CC1,"1-Cyclopropyl-2,5-dimethyl-1H-pyrrole-3-carbaldehyde",73,OCHEM
Clc1cc2c(oc3cc(Cl)c(Cl)c(Cl)c32)c(Cl)c1Cl,"1,2,3,6,7,8-Hexachlorodibenzofuran",233,QSARDB
O=C(O)CCCCCNc1nc(NCCCCCC(=O)O)nc(NCCCCCC(=O)O)n1.OCCN(CCO)CCO.OCCN(CCO)CCO.OCCN(CCO)CCO,n/a,-32,eChemPortal
Brc1ccc(Oc2cc(Br)c(Br)cc2Br)c(Br)c1,"2,2',4,4',5-Pentabromodiphenyl ether",92.3,OCHEM

6 of these entries, quoted again:

compound,name,MP (°C),via
NCCc1nc2ccccc2[nH]1,2-(1H-Benzimidazol-2-yl)ethan-1-amine,222,OCHEM
CN(C)[P+](Cc1ccccc1)(N(C)C)N(C)C.[Cl-],Benzyltris(dimethylaminato)phosphorus(1+) chloride,172.5,eChemPortal
O=C(CCl)c1ccc(F)c(F)c1,"2-Chloro-1-(3,4-difluoro-phenyl)-ethanone",38,OCHEM
N#Cc1nn(-c2c(Cl)cc(C(F)(F)F)cc2Cl)c(N)c1SSc1c(C#N)nn(-c2c(Cl)cc(C(F)(F)F)cc2Cl)c1N,n/a,297.6,eChemPortal
Clc1cc(Cl)cc(-c2cc(Cl)cc(Cl)c2)c1,n/a,164,QSARDB
CCCn1c(C)c(C(=O)O)c2cc(OC)ccc21,5-Methoxy-2-methyl-1-propyl-1H-indole-3-carboxylic acid,172,OCHEM